Results on 2 molecules are retold here after patent US10647700B2, “EZH2 inhibitor and use thereof” (TARAPEUTICS SCIENCE INC., priority 2017, dated 2020).

Chains of the proteins cited; added tags and fusions are not shown.
UniProt Q15910, whole entry Y641F: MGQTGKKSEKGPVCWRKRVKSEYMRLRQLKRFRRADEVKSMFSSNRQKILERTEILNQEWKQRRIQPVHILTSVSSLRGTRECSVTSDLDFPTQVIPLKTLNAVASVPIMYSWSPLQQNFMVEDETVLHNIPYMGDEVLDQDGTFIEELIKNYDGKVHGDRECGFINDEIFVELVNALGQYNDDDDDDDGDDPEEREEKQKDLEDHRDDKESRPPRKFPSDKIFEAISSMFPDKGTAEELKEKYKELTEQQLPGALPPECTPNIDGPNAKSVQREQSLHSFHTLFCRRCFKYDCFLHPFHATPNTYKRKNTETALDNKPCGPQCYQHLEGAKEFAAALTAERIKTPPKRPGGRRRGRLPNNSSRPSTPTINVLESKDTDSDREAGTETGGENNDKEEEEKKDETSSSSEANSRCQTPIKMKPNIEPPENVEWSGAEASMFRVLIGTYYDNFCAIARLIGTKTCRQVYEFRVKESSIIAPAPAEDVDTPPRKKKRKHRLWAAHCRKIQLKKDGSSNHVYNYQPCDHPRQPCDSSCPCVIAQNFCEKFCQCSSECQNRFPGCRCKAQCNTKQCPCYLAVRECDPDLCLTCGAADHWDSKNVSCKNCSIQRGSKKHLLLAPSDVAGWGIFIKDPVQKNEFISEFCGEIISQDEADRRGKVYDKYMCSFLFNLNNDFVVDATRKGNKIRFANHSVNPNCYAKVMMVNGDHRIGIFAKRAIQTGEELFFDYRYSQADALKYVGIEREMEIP

The IC50 is the concentration that inhibits the measured activity by half.

Experiment [1] concerns H3K27m3 methylation in Pfeiffer cells. The experiment can be described thus: Western Blot of H3K27m3 methylation in Pfeiffer cells. Format: cell-based. The settings on record: Homo sapiens, 72 h, read-out: IC50 (μM) pfeiffer. The procedure:
Meanwhile, the inventors further conducted Western Blot with Pfeiffer cells (purchased from ATCC, USA) for verification. […] Effect of compounds on H3K27m3 methylation in cells was assessed.

Experiment [2] concerns the target PRC2 protein complex comprising EZH2(Y641F) (Homo sapiens (Human), UniProt Q15910, Y641F). The experiment is described as follows: EZH2(Y641F) TR-FRET enzymatic activity assay. On the technique in general: TR-FRET usually uses a lanthanide donor and a delayed reading to cut background.

On to `CCN(C(=O)C1CC1)c1cc(-c2ccc(N3CCN(CC4CC4)CC3)nc2C)cc(C(=O)NCc2c(C)cc(C)[nH]c2=O)c1C` [Compound 69, 5-(6-(4-(cyclopropylmethyl)piperazin-1-yl)-2-methylpyridin-3-yl)-N-((4,6-dimethyl-2-oxo-1,2-dihydropyridin-3-yl)methyl)-3-(N-ethylcyclopropanecarboxamido)-2-methylbenzamide], for which, in experiment [1], the IC50 amounted to 0.064 µM. In experiment [2], the “activity compared with control compounds in the assay using a TR-FRET kit” value is “superior activity than control compounds GSK126 and EPZ6438”.

With `CCN(C(=O)C1CC1)c1cc(-c2cnc(N3CCN(CC4CC4)CC3)cc2C)cc(C(=O)NCc2c(C)cc(C)[nH]c2=O)c1C` [Compound 71, 5-(6-(4-(cyclopropylmethyl)piperazin-1-yl)-4-methylpyridin-3-yl)-N-((4,6-dimethyl-2-oxo-1,2-dihydropyridin-3-yl)methyl)-3-(N-ethylcyclopropanecarboxamido)-2-methylbenzamide], the IC50 in experiment [2] was determined as 0.016 µM.
